The values below are quoted from earlier work in paper PMC6048117 (Scientific Reports, 2018).

Turning to “glucose-dependent insulinotropic polypeptide [GIP]”, the Half-life result was “less than 5 min”.
